Compound activity from PubChem BioAssay.
Only some compounds are listed: those with a hit (about 2.5% of all), similar ones and a draw of the others.
TrxR1 inh – inhibitors of rat thioredoxin reductase 1 | O89049 | recombinant rTrxR1, NADPH fluorescence consumption, selenite substrate | Potency, µM (titrated, usually from 114 µM), for the others: at the top dose activity change, negative = inhibition, usual class: inhibitors | hit rate 1% among 390,000 | AID 588453; also: potency is read from the fitted curve at half-maximal effect; % is scaled to controls: 0 for no effect and ±100 for the full control effect; nearly all actives have a fitted effect of over 65% in size
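Rat TrxR1 (90 nM in the dispensed reagent) was pre-reduced with 400 uM NADPH for 5 min at room temperature, then incubated with compound for 15 min. After 400 uM selenite was added, NADPH fluorescence (Ex 340/Em 450 nm) was followed for 8 min.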
ClpP mod – qHTS Assay for Activators of ClpP. ATP-dependent Clp protease proteolytic subunit (Bacillus subtilis (strain 168)), P80244. purified B. subtilis ClpP, FRET peptide cleavage, 20 min. Potency, µM (titrated, usually from 57.5 µM), for inactives: at the top dose activity change, negative = active. hit rate 1.9% among 340,000; active = well fitted falling curve with a large enough effect; inconclusive = small, poorly fitted or top-dose-only effect; inactive = no such curve, though single readings can be large or run the other way; also: potency is read from the fitted curve at half-maximal effect; the source files actives as falling curves though it sought activators and does not explain the sign; nearly all actives have a fitted effect of over 65% in size
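Purified B. subtilis ClpP, 10 microg/mL final in Tris/HCl pH8 with KCl, BSA, glycerol and Tween-20, cleaved an Abz/nitrotyrosine-quenched decapeptide. Fluorescence (ex 320, em 430) was read at 0 and 20 min at room temperature. Delta was normalized to 5.8 microM ADEP and DMSO/no-enzyme controls.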
Anesthetic bind – candidate novel general anesthetic via apoferritin binding; apoferritin/1-aminoanthracene competitive binding, fluorescence; Potency, µM (highest dose often 77.5 µM), for the others: at the highest dose activity change, negative = displacement, most hits filed as inhibitors; hit rate 0.074% among 350,000; also: potency is read from the fitted curve at half-maximal effect; % is scaled to controls: 0 for no effect and ±100 for the full control effect; nearly all actives have a fitted effect of over 20% in size
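Horse-spleen apoferritin (10 uM) in 50% saturated 1-aminoanthracene in PBS was incubated 10 min at room temperature with compound. Fluorescence (ex 380, em 535 nm) was normalized to free and bound 1-AMA, with concentration-response fitted by a four-parameter Hill equation.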
TrxR1 substrate – substrates of rat thioredoxin reductase 1; O89049; hit rate 0.01% among 390,000; Potency, µM (titrated, usually from 114 µM), for inactives: top-dose activity change, negative = substrate turnover; purified TrxR1 substrate turnover, NADPH consumption readout; also: potency is read from the fitted curve at half-maximal effect; % is scaled to controls: 0 for no effect and ±100 for the full control effect; nearly all actives have a fitted effect of over 50% in size
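Rat TrxR1, dispensed at 90 nM, was prereduced with 400 uM NADPH (final) for 5 min at ~22 deg C, then incubated with compound 15 min before 400 uM selenite. A first-read NADPH fluorescence drop versus no-compound background flagged substrates.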
miR-21 reporter – miR-21 reporter, rising signal; HeLa miR-21 FLuc reporter, luciferase, 48 h; Potency, µM (highest dose often 38.3 µM), for the others: top-dose reporter change, positive = more light; 340,000 tested, under 10 active; AID 2288; active = well fitted rising curve with a large enough effect; inconclusive = small, poorly fitted or top-dose-only effect; inactive = no such curve, though single readings can be large or run the other way;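 further: % of control where 0% means no effect; miR-21 action dims this reporter so a rising signal means less miR-21 action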
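Compounds were titrated across several concentrations (up to approximately 40 uM) and incubated 48 hours with HeLa miR-21-FLuc reporter cells (miR-21 target sequence downstream of FLuc, endogenous miR-21). Readout was firefly luciferase luminescence after lytic detection reagent.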
An asterisk follows results filed as active; ? = inconclusive; . = no result given; [ ] = dose if it differs, or a comment. Unless noted, calls follow the shape of the dose curve; as a rule, active = well fitted curve in the direction sought with a large enough effect; inconclusive = small, poorly fitted or top-dose-only effect, or another doubt; inactive = no such curve, though single readings can be large; an effect the other way counts as inactive or inconclusive.

1. Cc1noc(Cn2c(=O)c3ccccc3n(CC(=O)Nc3ccc(C(C)C)cc3)c2=O)n1
2. Cc1ccc(Cl)cc1N1CCN(C(=O)c2cccn2-c2nnc(N3CCCC3)s2)CC1
3. Cc1cccc(Cn2c(-c3cccc(Br)c3)nc3ccccc32)c1
4. Brc1cccc(Cn2c(-c3cncs3)nc3ccccc32)c1
5. OCc1cn(-c2ccccc2)nc1-c1ccco1
6. OCc1cn(-c2ccccc2)nc1-c1ccc(-c2nn(-c3ccccc3)cc2CO)cc1
7. Cc1ccc(-c2nn(-c3ccccc3)cc2CO)o1
8. CN(C)c1ccc(/C=C/c2cc(Cl)nc3ccccc23)cc1
Screen / compound no.	1	2	3	4	5	6	7	8
TrxR1 inh	10%	11%[57.1 µM]	6%[57.1 µM]	-1%	4%	19%[57.1 µM]	-22%	31%
ClpP mod	-3%	-1%	32µM*	-11%	?	28µM*	32µM*	?
Anesthetic bind	-6%	-6%	-6%	-10%	?	-7%	8%	.
TrxR1 substrate	-13%	1%[57.1 µM]	-4%[57.1 µM]	4%	20%	20%[57.1 µM]	40%	2%
miR-21 reporter	23%	2%	0%	0%	-49%	-1%	-71%	.

9. COC(=O)c1ccccc1NC(=O)n1cc(C)cn1
10. Cc1ccc(C)c(NC(=O)CSc2c3c(nc4ccc(Cl)cc24)CCCC3)c1
11. COc1cc2c(cc1NC(=O)Nc1ccc(C)cc1)oc1ccccc12
12. COc1cc2c(cc1NC(=O)c1cc(-c3cccnc3)nc3ccc(C)cc13)oc1ccccc12
13. COc1ccc(NC(=O)Nc2cc3oc4ccccc4c3cc2OC)cc1
14. COc1cc2c(cc1NC(=S)Nc1cccc(C)c1)oc1ccccc12
15. COc1cc2c(cc1NC(=O)Nc1cccc(C)c1)oc1ccccc12
16. COc1cc2c(cc1NC(=O)CSc1ccccc1)oc1ccccc12
Screen / compound no.	9	10	11	12	13	14	15	16
TrxR1 inh	-17%	-9%	-11%	13%	9%	-1%	39%[57.1 µM]	10%
ClpP mod	32µM*	2%	35µM*	20µM*	-22%	11µM*	28µM*	-19%
Anesthetic bind	-7%	-19%	42%	-11%	3%	-20%	-4%	6%
TrxR1 substrate	29%	-9%	5%[57.1 µM]	5%	4%	50%	47%	7%
miR-21 reporter	-2%	-5%	-19%	-6%	-19%	-17%	-8%	-30%

17. COc1cc2c(cc1NC(=O)CSc1nc3cc(Cl)ccc3s1)oc1ccccc12
18. CCOP(=O)(OCC)C(NC(=O)Nc1ccc(Cl)c(Cl)c1)C(N)=O (configuration not stated)
19. O=C(O)CCc1ccc(-c2ccc(Br)cc2)n1Cc1ccco1
20. O=C(O)CCc1ccc(-c2ccc(Cl)cc2)o1
21. COc1ccc(-c2noc(CCC(=O)O)n2)cc1
22. NC(=O)c1ccc(-c2ccc(Br)cc2)o1
23. NC(=O)C1CCN(C(=S)c2ccc(-c3ccc(Br)cc3)o2)CC1
24. O=C(O)CCc1ccc(-c2ccc(Br)cc2)o1
Screen / compound no.	17	18	19	20	21	22	23	24
TrxR1 inh	-20%	-13%	-34%	18µM*	-4%	-18%	18%[57.1 µM]	22µM*
ClpP mod	5.6µM*	16µM*	-9%	?	-1%	28µM*	.	0%
Anesthetic bind	5%	-8%	-9%	-15%	0%	?	-4%	-21%
TrxR1 substrate	-5%	-15%	10%	7%	-14%	24%	-13%[57.1 µM]	4%
miR-21 reporter	6%	0%	-7%	-3%	7%	-57%	-57%	-17%

Laid out differently: entries from further up.
Order of results: TrxR1 inh, ClpP mod, Anesthetic bind, TrxR1 substrate, miR-21 reporter
24: O=C(O)CCc1ccc(-c2ccc(Br)cc2)o1
→ 22µM*, 0%, -21%, 4%, -17%
21: COc1ccc(-c2noc(CCC(=O)O)n2)cc1
→ -4%, -1%, 0%, -14%, 7%
5: OCc1cn(-c2ccccc2)nc1-c1ccco1
→ 4%, ?, ?, 20%, -49%

Additional entries:
25. COc1ccc(-c2ccc(CCC(=O)O)o2)cc1
26. CCOC(=O)c1sc(NC(=O)c2cc(-c3ccc(F)cc3)on2)c(C(=O)OCC)c1C
27. COc1ccc(C2CC(=O)N(Cc3ccccc3)c3c2c(C)nn3-c2nc(C)cc(C)n2)c(OC)c1 (configuration not stated)
28. CC(C)OCCCNC(=O)c1nn(C)c2c1CSc1ccccc1-2
29. Cc1nc2c(C(=O)NCCc3ccccc3)c[nH]n2c(=O)c1Cl
30. Cc1nc2c(C(=O)NCCC(C)C)c[nH]n2c(=O)c1Cl
31. Cc1ccc(CNC(=O)c2ccccc2N)cc1
32. Nc1ccccc1C(=O)NCc1ccco1
Screen / compound no.	25	26	27	28	29	30	31	32
TrxR1 inh	18µM*	7%	16%	7%	19%	8%	13%	6%
ClpP mod	.	-19%	2%	-2%	?	32µM*	28µM*	.
Anesthetic bind	-3%	1%	-10%	-2%	-8%	-11%	?	-5%
TrxR1 substrate	12%[57.1 µM]	-2%	-5%	-5%	17%	-3%	144%	73%
miR-21 reporter	-28%	0%	-7%	-4%	-1%	0%	-20%	0%

33. Cc1cccc(CNC(=O)c2ccccc2N)c1
34. COc1ccccc1C(=O)Nc1nnc(SCc2cc(=O)c3cc(Cl)ccc3[nH]2)s1
35. CCC(=O)N1CCCc2cc(S(=O)(=O)N3CCC(C(=O)NC4CCC(C)CC4)CC3)ccc21 (configuration not stated)
36. CCOC(=O)NC1(NC2CCCCC2)Oc2ccccc2O1
37. CCOC(=O)NC1(NC(C)C)Oc2ccccc2O1
38. CCOC(=O)NC1(NCc2ccccc2)Oc2ccccc2O1
39. COc1ccc(OC)c(NC(=O)Nc2cccc(OCc3cc(=O)n4cc(C)ccc4n3)c2)c1
40. CCCc1cc(=O)[nH]c(Nc2cc(Cl)cc(Cl)c2)n1
Screen / compound no.	33	34	35	36	37	38	39	40
TrxR1 inh	8%	24%[57.1 µM]	9%[57.1 µM]	32µM*	-3%	32µM*	-4%[57.1 µM]	-8%
ClpP mod	8.9µM*	-1%	-6%	0%	1%	-4%	-3%	-8%
Anesthetic bind	0%	1%	-3%	?	-4%	-11%	-3%	9%
TrxR1 substrate	104%	0%[57.1 µM]	2%[57.1 µM]	1%[57.1 µM]	20%	2%[57.1 µM]	-5%[57.1 µM]	22%
miR-21 reporter	-22%	0%	13%	-14%	2%	-7%	-28%	?

41. O=C1Nc2ccc(Br)cc2/C1=C/C(=O)c1ccccc1
42. O=C(O)COc1ccccc1/C=C1\C(=O)Nc2ccc(Br)cc21
43. COc1ccc(/C=C2\N=C(c3ccc(C)cc3)OC2=O)cc1
44. Cc1ccc(S(=O)(=O)Oc2ccc(/C=C3/N=C(c4ccccc4)OC3=O)cc2)cc1
45. Cc1ccc2cc(CN(CC3CCCO3)C(=O)NC3CCCCC3)c(=O)[nH]c2c1C (configuration not stated)
46. COc1ccc2[nH]c(=O)c(CNC3CCCCC3)cc2c1
47. CCN(CC)CCCN(Cc1cc2ccc(C)c(C)c2[nH]c1=O)C(=O)NC1CCCCC1
48. CCN(CC)CCN(Cc1cc2cc3c(cc2[nH]c1=O)OCCO3)C(=O)NC1CCCCC1
49. COc1ccc(CN(Cc2cc3cc4c(cc3[nH]c2=O)OCO4)C(=O)NC2CCCCC2)cc1
50. COc1ccc2[nH]c(=O)c(CN(C(=O)NC3CCCCC3)C3CCCCC3)cc2c1
51. COc1ccc(-c2cccc(NS(=O)(=O)c3ccc(C)s3)c2)nn1
Screen / compound no.	41	42	43	44	45	46	47	48	49	50	51
TrxR1 inh	-7%[11.4 µM]	-8%[57.1 µM]	16%[57.1 µM]	-19%	-7%	-4%	-7%	-18%	20%	-4%	8%[57.1 µM]
ClpP mod	1%	25µM*	25µM*	-14%	?	16µM*	28µM*	25µM*	22µM*	?	-3%
Anesthetic bind	.	8%	-3%	5%	-5%	14%	-14%	1%	40%	-11%	-9%
TrxR1 substrate	7%[57.1 µM]	7%[57.1 µM]	-13%	-5%	1%	71%	2%	35%	48%	-11%[0.457 µM]	-1%[57.1 µM]
miR-21 reporter	.	-2%	-1%	0%	-5%	-3%	-3%	-13%	-2%	-4%	-2%
